By IC50 is commonly meant the concentration that gives 50% inhibition. Higher therefore signals weaker potency.

Protein sequences, listed by entry. Tags and fused reporters are not part of them.
UniProt P61169, whole entry: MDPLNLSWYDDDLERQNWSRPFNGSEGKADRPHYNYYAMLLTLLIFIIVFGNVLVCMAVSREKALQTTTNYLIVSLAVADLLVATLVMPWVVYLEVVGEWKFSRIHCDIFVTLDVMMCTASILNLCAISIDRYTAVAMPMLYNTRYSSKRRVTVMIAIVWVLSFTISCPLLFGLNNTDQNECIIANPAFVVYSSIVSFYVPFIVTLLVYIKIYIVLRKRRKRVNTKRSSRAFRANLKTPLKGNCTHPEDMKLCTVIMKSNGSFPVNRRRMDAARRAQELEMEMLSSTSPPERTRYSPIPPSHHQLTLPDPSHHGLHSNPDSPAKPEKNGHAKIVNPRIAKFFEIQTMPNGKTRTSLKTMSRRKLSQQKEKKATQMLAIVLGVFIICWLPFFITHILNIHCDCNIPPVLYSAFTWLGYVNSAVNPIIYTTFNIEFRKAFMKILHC

The values below come from ChEMBL document CHEMBL1124174, “Substituted benzamides. 1. Potential nondopaminergic antagonists of chemotherapy-induced nausea and emesis” (J Med Chem, 1988).

This assay concerns the target D(2) dopamine receptor (Rattus norvegicus, UniProt P61169). The experiment in a line: In vitro antagonistic activity against Dopamine receptor D2 was evaluated for the inhibition of [3H]spiperone binding. The procedure, abridged:
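Rat striatal membranes were prepared by differential centrifugation in 50 mM Tris pH 7.4 at 4 °C. Membrane protein (10 mg) was incubated 15 min at 37 °C with 0.1 nM [3H]spiperone and varying competitor concentrations. Buffer: 50 mM Tris HCl pH 7.5, 0.1% ascorbic acid, pargyline, 120 mM NaCl, 5 mM KCl, 2 mM CaCl2, 1 mM MgCl2. (+)-Butaclamol defined nonspecific binding. Bound ligand was collected by filtration and scintillation counted. IC50 by log-logit regression.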

As to `CCN(CC)CCNC(=O)c1cc(Cl)c(N)cc1OC` [METOCLOPRAMIDE], the IC50 came to 565 nM.
